Laboratory results reported in the supplement of paper PMC12669032.
Most of the hits are listed elsewhere, so they are rarer here than in the full data.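 The calls were made as follows: active = AUC reduced over 20% with Padj below 0.05 in at least 2 of 3 replicates; inactive = otherwise.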

system: Collinsella aerofaciens; experiment: growth AUC relative to DMSO control (median of replicates) (fraction); higher = more growth (less inhibition), active = hit call of the paper; conditions: 20 µM; 24 h
Method: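 Anaerobic monocultures of 22 human gut bacterial strains grown at 37 °C in mGAM with 20 µM compound (1% DMSO), starting OD600 0.05. OD600 read hourly for 24 h. Value is the median of 3 biological replicates. Hit: >20% AUC reduction and Padj<0.05 in at least 2 of 3 replicates.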

| SMILES | growth AUC |
| --- | --- |
| CCOP(=S)(OCC)Oc1ncn(-c2ccccc2)n1 | inactive: 0.993 |
| CCOc1nc(C(Cl)(Cl)Cl)ns1 | inactive: 0.967 |
